System: T84 cells
Test: TER of T84 cells
Details: TNF-α 50 ng/ml, p < 0.0005

**Q.** How did the “stressor effect of TNF-α on TER” value turn out when Tumor necrosis factor-α was run?
**A.** significantly reduced T84 cell TER
